22 compounds from paper PMC4136963, “Structure-Based Design and Synthesis of Antiparasitic Pyrrolopyrimidines Targeting Pteridine Reductase 1” (Journal of Medicinal Chemistry, 2014) can be followed below.

Structures can show the parent of a compound that is named as a salt.

The target of the first assay is T1, TbPTR1 (Trypanosoma brucei brucei, UniProt O76290).
T1 sequence (O76290 1-268): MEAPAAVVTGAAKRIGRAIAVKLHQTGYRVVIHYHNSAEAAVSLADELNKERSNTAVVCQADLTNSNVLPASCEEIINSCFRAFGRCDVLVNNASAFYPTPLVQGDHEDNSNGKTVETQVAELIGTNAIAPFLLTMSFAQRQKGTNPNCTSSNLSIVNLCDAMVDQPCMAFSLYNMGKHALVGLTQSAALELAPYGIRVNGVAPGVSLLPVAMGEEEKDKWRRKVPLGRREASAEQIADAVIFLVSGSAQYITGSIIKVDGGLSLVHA
Assay: not given
The note with it: apparent Ki, competitive inhibition assumed; Insol = insoluble.
Take `Cc1ccc(C(C[N+](=O)[O-])c2c(N)nc(N)nc2N)cc1` (stereo not shown) [28a]: the “TbPTR1 (Ki^app μM)” value is given as “Insol”.

Take `Nc1nc(N)c(C(C[N+](=O)[O-])c2ccccc2)c(N)n1` (stereo not shown) [28c, 5-(2-Nitro-1-phenylethyl)-2,4,6-pyrimidinetriamine]: the “TbPTR1 (Ki^app μM)” value is “Insol”.

Regarding `CC(C)Oc1nc(N)nc(N)c1C(C[N+](=O)[O-])c1ccc(F)cc1` (stereo not shown) [30c, 5-[1-(4-Fluorophenyl)-2-nitroethyl]-6-isopropyloxy-2,4-pyrimidinediamine], the “TbPTR1 (Ki^app μM)” value is recorded as “Insol”.

With `CC(C)Oc1nc(N)nc2[nH]cc(-c3ccc(F)cc3)c12` [31c, 5-(4-Fluorophenyl)-4-isopropyloxy-7H-pyrrolo[2,3-d]pyrimidin-2-amine], the “TbPTR1 (Ki^app μM)” value is “Insol”.

Take `COc1ccc(-c2c(-c3ccc(F)cc3)[nH]c3nc(N)[nH]c(=O)c23)cc1` [34f]: the “TbPTR1 (Ki^app μM)” value is on record as “Insol”.

Regarding `CS(=O)(=O)c1ccc(-c2[nH]c3nc(N)[nH]c(=O)c3c2-c2ccccc2)cc1` [34k], the “TbPTR1 (Ki^app μM)” value was “Insol”.

Turning to `Nc1nc(N)c2c(-c3ccc(Cl)cc3)c(-c3ccc(Cl)cc3)[nH]c2n1` [35d], the “TbPTR1 (Ki^app μM)” value is “Insol”.

In the case of `Cc1ccc(-c2[nH]c3nc(N)nc(N)c3c2-c2ccc(C)cc2)cc1` [35f], the “TbPTR1 (Ki^app μM)” value is “Insol”.

For the compound `CN(C)c1nc(N)nc2[nH]c(-c3ccc(F)cc3)c(-c3ccc(F)cc3)c12` [36a], the “TbPTR1 (Ki^app μM)” value is on record as “Insol”.

For `CN(C)c1nc(N)nc2[nH]c(-c3ccc(Cl)cc3)c(-c3ccc(Cl)cc3)c12` [36b], the “TbPTR1 (Ki^app μM)” value is “Insol”.

With `CN(C)c1nc(N)nc2[nH]c(-c3ccc(F)cc3)c(-c3ccccc3)c12` [36c], the “TbPTR1 (Ki^app μM)” value is listed as “Insol”.

Consider `N#Cc1c[nH]c2nc(N)nc(N3CCCC3)c12` [compound 13, 2-Amino-4-(1-pyrrolidinyl)-7H-pyrrolo[2,3-d]pyrimidine-5-carbonitrile], for which the “TbPTR1 (Ki^app μM)” value is “Insol”.

The target in the next assay is T1, TbPTR1. The experiment in a line: biochemical.
Details: not given
Usually Ki stands for a dissociation constant, usually derived from enzyme kinetics or from competition with a known ligand. Read a low Ki as tighter binding. `COc1nc(N)nc2[nH]cc(C#N)c12` [12a]: the Ki was ~75 µM.

As for `Cc1ccc(C(C[N+](=O)[O-])c2c(N)nc(N)[nH]c2=O)cc1` (stereo not shown) [26a], the Ki is > 100 µM.

With `Nc1nc(N)c(C(C[N+](=O)[O-])c2ccc(F)cc2)c(=O)[nH]1` (stereo not shown) [26b], the Ki was > 100 µM.

Regarding `Nc1nc(N)c(C(C[N+](=O)[O-])c2ccccc2)c(=O)[nH]1` (stereo not shown) [26c, 2,6-diamino-5-(2-nitro-1-phenylethyl)-4(3H)-pyrimidinone], the Ki was > 100 µM.

As for `Nc1nc(N)c(C(CCc2ccccc2)C[N+](=O)[O-])c(=O)[nH]1` (stereo not shown) [26d], the Ki was > 100 µM.

In the case of `Nc1nc(N)c(C(C[N+](=O)[O-])c2ccc(F)cc2)c(N)n1` (stereo not shown) [28b], the Ki is ~50 µM.

Take `Nc1nc(N)c(C(CCc2ccccc2)C[N+](=O)[O-])c(N)n1` (stereo not shown) [28d]: the Ki is > 100 µM.

Take `CC(C)COc1nc(N)nc(N)c1C(C[N+](=O)[O-])c1ccc(F)cc1` (stereo not shown) [30a]: the Ki was > 100 µM.

For `Nc1nc(N)c(C(C[N+](=O)[O-])c2ccc(F)cc2)c(NC2CCCCC2)n1` (stereo not shown) [30b], the Ki is > 100 µM.

Turning to `Nc1nc2[nH]c(-c3ccc(CCCN4CCOCC4)cc3)c(-c3ccccc3)c2c(=O)[nH]1` [compound 38, 2-Amino-6-{4-[3-(4-morpholinyl)propyl]phenyl}-5-phenyl-3,7-dihydro-4H-pyrrolo[2,3-d]pyrimidin-4-one trifluoroacetate], the Ki was > 10 µM.
